Reference: patent publication US20050176641A1, “Long lasting natriuretic peptide derivatives” (CONJUCHEM, INC., priority 2000, published 2005)

System: NEP enzyme
Test: Stability towards NEP enzyme (RIA detection)
Type: in vitro ADME
Settings: control, 37° C., up to 48 hours
Procedure: Stability of conjugates of NP peptides is also tested in a NEP enzyme solution in comparison to the corresponding free NP peptides so as to show protection of the conjugated NP peptides against enzymatic degradation by NEP enzyme specifically. In the examples given below, the corresponding flee NP peptide is human ANP, called “hANP” herein below, which was provided by Phoenix Pharmaceuticals Inc., Belmont, Calif., USA.
Conditions for the analysis of the stability towards NEP enzyme degradation are as follow. The lyophilised enzymes contained in a vial of NEP enzyme (provided by Calbiochem/Novabiochem Corporation, San Diego, Calif., USA, product # 324762) are solubilized with 100 μL of 0.1 M Tris-HCl buffer pH 8.0. It was vortexed and sonnicated to ensure a complete dissolution of the enzymes. One vial contains between 800 and 950 U of enzymes. A solution of conjugates is prepared at 250 μM with 0.1 M Tris-HCl buffer pH 8.0. […]
For the radioimmunoassay, 50 μL of either NP conjugate calibration standards, quality control samples, or diluted test samples in assay buffer (0.05M phosphate buffer, pH 7.5, 0.08% sodium azide, 0.025M EDTA, and 0.1% gelatin) is added to the appropriately labeled 12×75 mm borosilicate glass test tubes. […] The supernatants (bound fractions) are then counted on a gamma counter (Packard Cobra II Auto-Gamma) for at least 2 minutes. […]

Q: How did the NEP hydrolysis turn out when “capped HSA: albumin with a cysteine residue bonded to it” was run?
A: The NEP hydrolysis was “not (or almost not) subject to NEP hydrolysis”.
